# The entries are a selection whose mix differs from that of the whole data set. Activity calls are given as the source filed them. No stated cut-off is given here; in the data, active means inhibition mostly above about 23% (no sharp cut-off); inactive means mostly below about 18%.
# By UniProt entry, the sequences of proteins in these tests, tags left out.
# UniProt P47898, whole entry: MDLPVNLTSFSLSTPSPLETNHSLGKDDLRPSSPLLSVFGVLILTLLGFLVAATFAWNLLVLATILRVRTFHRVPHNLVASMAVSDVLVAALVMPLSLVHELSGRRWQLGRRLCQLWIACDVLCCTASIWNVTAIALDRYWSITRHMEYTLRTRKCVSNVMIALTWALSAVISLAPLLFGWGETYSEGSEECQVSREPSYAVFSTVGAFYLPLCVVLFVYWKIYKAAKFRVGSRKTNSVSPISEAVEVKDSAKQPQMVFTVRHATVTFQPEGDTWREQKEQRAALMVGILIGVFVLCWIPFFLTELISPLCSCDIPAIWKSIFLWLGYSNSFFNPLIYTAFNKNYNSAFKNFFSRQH
# Molecular target: 5-hydroxytryptamine receptor 5A (Homo sapiens) (UniProt P47898)
# Assay: inverse agonism at human 5-HT5A receptor – cell-based, luminescence, full-deck HTS, counter-screen for OPRM1-OPRD1 heterodimer inverse agonist project, primary screen (AID 504634);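 further: 0% = cells with DMSO and 100% = no-cell wells with DMSO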
# Settings: HTR5A cell line, at 9.3 µM, stronger effect = higher value
row,SMILES,inhibition
1,O=C(NCC1(N2CCCCC2)CCCCC1)c1cccs1,inactive: -6.84%
2,O=C(NCC1(N2CCCCC2)CCCCC1)c1ccc(=O)[nH]c1,inactive: 20.4%
3,COc1ccc(C(=O)NCC2(N3CCCCC3)CCCCC2)c(OC)c1OC,inactive: -0.73%
4,CC(C)(C)OC(=O)N1CCC(N(C(=O)c2ccccc2)c2ccc(F)cc2)CC1,inactive: -15.4%
5,COc1ccc(C(=O)NCC2(N3CCCCC3)CCCCC2)cc1,inactive: -10.3%
6,Cc1cccc(NC2(C#N)CCN(Cc3ccccc3)CC2)c1,inactive: 1.04%
7,CSc1ccccc1C(=O)NCC1(N2CCCCC2)CCCCC1,inactive: -18.5%
8,O=C(NCC1(N2CCOCC2)CCCCC1)c1cc2ccccc2o1,inactive: -11.9%
9,Cc1cc(C)cc(N(C(=O)c2ccccc2)C2CCN(C(=O)OC(C)(C)C)CC2)c1,inactive: 11.3%
10,O=C(NCC1(N2CCCCC2)CCCCC1)c1ccc(Cl)nc1,inactive: -15.2%
11,CCOC(=O)N1CCC(Nc2ccc(OC)cc2)CC1,inactive: 32%
12,COc1ccc(Cl)cc1C(=O)NCC1(N2CCOCC2)CCCCC1,inactive: -6.65%
13,O=C(OC1CN2CCC1CC2)C1c2ccccc2Oc2ccccc21 (centres undefined),inactive: -29.4%
14,O=C(NCC1(N2CCCCC2)CCCCC1)c1ccc(Cl)s1,inactive: 9.04%
15,N#CC1(Nc2ccccc2)CCN(Cc2ccccc2)CC1,inactive: -9.73%
16,CCOc1ccc(C)cc1CN(CCCl)CCCl,inactive: 6.67%
17,O=C1CCN(Cc2ccccc2)CC1,inactive: 2.52%
18,CCOC(=O)N1CCC(Nc2ccc(F)cc2)CC1,inactive: -4.64%
19,COc1ccc(NC2CCN(CCc3ccccc3)CC2)c(OC)c1,inactive: -5.67%
20,O=C(NCC1(N2CCCCC2)CCCCC1)c1ccc(F)cc1,inactive: 17.6%
21,CCCCOc1ccc(C(=O)NCC2(N3CCOCC3)CCCCC2)cc1,inactive: 3.78%
22,O=P1(N(CCCl)CCCl)SCCCS1,inactive: -12.7%
23,COc1cc(C(=O)NCC2(N(C)C)CCCCC2)ccc1OC(F)F,inactive: -5.74%
24,CCOC(=O)N1CCC(Nc2cccc(C)c2)CC1,inactive: 0.66%
25,O=C(NCC1(N2CCCCC2)CCCCC1)c1ccc(OC(F)F)cc1,inactive: -45.5%
26,O=C(NCC1(N2CCCCC2)CCCCC1)c1cccc([N+](=O)[O-])c1,inactive: -20%
27,CSc1ccc(C(=O)NCC2(N3CCOCC3)CCCCC2)cc1,inactive: -0.86%
28,N#CC1(Nc2ccccc2)CCN(CCc2ccccc2)CC1,inactive: -20.3%
29,CCN1CCC(Nc2ccc(Cl)cc2)CC1,inactive: 9.07%
